The source of these data is patent US9029359B2, “Heteroaryl Btk inhibitors” (Biogen Idec MA, Inc., priority 2009, dated 2015).

Protein sequences, listed by entry. Tags and fused reporters are not part of them.
UniProt Q06187, whole entry: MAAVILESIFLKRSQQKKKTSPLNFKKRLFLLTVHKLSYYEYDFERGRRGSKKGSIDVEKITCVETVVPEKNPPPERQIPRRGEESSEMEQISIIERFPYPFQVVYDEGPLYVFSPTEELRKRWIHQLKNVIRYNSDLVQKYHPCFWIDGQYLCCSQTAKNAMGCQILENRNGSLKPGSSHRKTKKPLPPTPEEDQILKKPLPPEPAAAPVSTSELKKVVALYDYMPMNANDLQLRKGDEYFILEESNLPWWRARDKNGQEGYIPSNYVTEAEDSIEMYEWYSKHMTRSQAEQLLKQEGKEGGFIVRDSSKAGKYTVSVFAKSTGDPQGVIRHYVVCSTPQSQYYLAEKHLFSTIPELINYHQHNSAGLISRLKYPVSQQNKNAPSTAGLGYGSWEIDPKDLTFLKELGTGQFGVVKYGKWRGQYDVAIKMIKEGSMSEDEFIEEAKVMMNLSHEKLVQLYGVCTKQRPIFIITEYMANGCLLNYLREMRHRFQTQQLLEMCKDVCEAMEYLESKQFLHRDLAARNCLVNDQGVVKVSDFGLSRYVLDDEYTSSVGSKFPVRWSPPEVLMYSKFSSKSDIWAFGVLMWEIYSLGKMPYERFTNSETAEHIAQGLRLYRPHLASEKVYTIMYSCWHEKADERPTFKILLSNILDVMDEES

Each structure is given as a SMILES string. Bounds are passed on as bounds.

The test addresses BTK (Homo sapiens, UniProt Q06187). The test is described as follows: In vitro BTK kinase assay: BTK-POLYGAT-LS ASSAY. The settings on record: read-out: IC50 (10 uM ATP), ATP 10 uM.

`C[C@H]1C[C@@H](NC(=O)[C@H](Nc2cc(F)cc(Cl)c2)C2CC2)CN(c2ncnc3[nH]ncc23)C1`: the IC50 (as a rule, the concentration that inhibits the measured activity by half) is below 100 nM.
